Measured values reported in PMC8245553, “Identification of natural product modulators of Merkel cell carcinoma cell growth and survival” (Scientific Reports, 2021).

Columns and labels:
MCC13 (VN-MCC) cells [1] = experiment: cells; details: Homo sapiens, 72 h, read-out: IC50 (95% CI)
UISO (VN-MCC) cells [2] = tested on: UISO (VN-MCC) cells
MKL-1 (VP-MCC) cells = experiment: Differential growth inhibition/cytotoxicity assay (CellTiterGlo/XTT), MKL-1; details: read-out: IC50 (95% CI)
WaGa (VP-MCC) cells = experiment: Differential growth inhibition/cytotoxicity assay (CellTiterGlo), WaGa; details: read-out: IC50 (95% CI)
MCC26 (VN-MCC) cells [3] = experiment: cells; details: Homo sapiens, 72 h, read-out: IC50 (95% CI)
[4] = tested on: HaCaT immortalized keratinocytes; experiment: cells; details: Homo sapiens, 72 h, read-out: IC50 (95% CI)
MKL-2 (VP-MCC) cells = experiment: Differential growth inhibition/cytotoxicity assay (CellTiterGlo), MKL-2; details: read-out: IC50 (95% CI)
MCC26 (VN-MCC) cells [5] = details: read-out: IC50 (95% CI)
[6] = tested on: HaCaT immortalized keratinocytes; details: read-out: IC50 (95% CI)
MCC13 (VN-MCC) cells [7] = details: read-out: IC50 (95% CI)
UISO (VN-MCC) cells [8] = experiment: cells; details: Homo sapiens, 72 h, read-out: IC50 (95% CI)

| Compound | IC50 (MCC13 (VN-MCC) cells [1]) | IC50 (UISO (VN-MCC) cells [2]) | IC50 (MKL-1 (VP-MCC) cells; Homo sapiens, MKL-1, 72 h) | IC50 (WaGa (VP-MCC) cells; Homo sapiens, 72 h) | IC50 (MCC26 (VN-MCC) cells [3]) | IC50 [4] | IC50 (MKL-2 (VP-MCC) cells; Homo sapiens, 72 h) | IC50 (MCC26 (VN-MCC) cells [5]) | IC50 [6] | IC50 (MCC13 (VN-MCC) cells [7]) | IC50 (UISO (VN-MCC) cells [2]; read-out: IC50 (95% CI)) | IC50 (MKL-1 (VP-MCC) cells) | IC50 (WaGa (VP-MCC) cells) | IC50 (MKL-2 (VP-MCC) cells) | IC50 (UISO (VN-MCC) cells [8]) |
| --- | --- | --- | --- | --- | --- | --- | --- | --- | --- | --- | --- | --- | --- | --- | --- |
| Nc1nc(Cl)nc2c1ncn2[C@H]1C[C@H](O)[C@@H](CO)O1 [Cladribine] | 56.9 nM | 227 nM | 157 nM | 838 nM | ~10000 nM | 1020 nM | 290 nM |  |  |  |  |  |  |  |  |
| Cc1[nH]c2ccccc2c1CCNCc1ccc(/C=C/C(=O)NO)cc1 [Panobinostat] | 51 nM |  | 32 nM |  | 72 nM |  | 3.4 nM |  |  |  |  |  |  |  |  |
| Furoxanobenzofuroxan |  |  |  |  |  |  |  | 1700 nM | > 10000 nM | > 10000 nM | 6910 nM | 150 nM | 350 nM | 160 nM |  |
| C/C=C(/C)C(=O)O[C@H]1C(C)=C2[C@H]([C@@H]1OC(=O)CCCCCCC)[C@@](C)(OC(C)=O)C[C@H](OC(=O)CCC)[C@@]1(O)[C@H]2OC(=O)[C@@]1(C)O [Thapsigargin] | 970 nM |  | > 10000 nM | 1020 nM | 1110 nM | 1070 nM | 1140 nM |  |  |  |  |  |  |  |  |
| O=Nc1ccc(O)c2ncccc12 [5-Nitroso-8-hydroxyquinoline] | 1400 nM |  | 80 nM | 70 nM | 1970 nM | > 10000 nM | 30 nM |  |  |  |  |  |  |  |  |
| Nc1nc(Cl)nc2c1ncn2[C@@H]1O[C@H](CO)[C@@H](O)[C@@H]1F [Clofarabine] | 184 nM | 1060 nM | 101 nM | 164 nM | 803 nM | 1120 nM | 282 nM |  |  |  |  |  |  |  |  |
| COc1cc([C@@H]2c3cc4c(cc3[C@@H](O[C@@H]3O[C@@H]5CO[C@@H](C)O[C@H]5[C@H](O)[C@H]3O)[C@H]3COC(=O)[C@H]23)OCO4)cc(OC)c1O [Etoposide] |  | ~10000 nM |  |  | ~10000 nM | ~10000 nM |  |  |  |  |  |  |  |  |  |
| C[n+]1ccc2c(c1)c(O)c1c3c(c4cc(Br)ccc4nc32)C(=O)C[N+]1(C)C [petrosamine B] | 1760 nM |  | 530 nM | 3400 nM | > 10000 nM | > 10000 nM | > 10000 nM |  |  |  |  |  |  |  |  |
| Cc1c(O)c(O)c2c(c1O)C(=O)C(Cl)=C(Cl)C2=O [NSC369976] |  |  |  |  |  |  |  | > 10000 nM | > 10000 nM | ~10000 nM | ~5000 nM | 1150 nM | 710 nM | 1070 nM |  |
| C[C@@H]1C[C@H](C)C[C@H](C)[C@@H](O)CC(=O)O[C@H]([C@@H]2CCC[C@H]2C(=O)O)C/C=C/C=C(/C#N)[C@H](O)[C@@H](C)C1 [Borrelidin] | 5.8 nM |  |  |  | 12.9 nM | 72 nM |  |  |  |  |  |  |  |  | 5 nM |
| O=C(N[C@H](COC(=O)[C@H](Cc1ccccc1)NC(=O)c1ccccc1)Cc1ccccc1)c1ccccc1 [asperphenamate] | > 10000 nM |  | ~10000 nM | ~5000 nM | > 10000 nM | > 10000 nM | 3410 nM |  |  |  |  |  |  |  |  |
| O=C1C2=C3C4=[N+](CCc5c[nH]c1c54)[C@H]1C[C@@]34C[C@@H](N2)SC4=CC1=O [Discorhabdin D] | 2670 nM |  | 460 nM | 970 nM |  | 6170 nM | 1490 nM |  |  |  |  |  |  |  | 2070 nM |
| CO[C@@]12[C@H](COC(N)=O)C3=C(C(=O)C(C)=C(N)C3=O)N1C[C@@H]1N[C@@H]12 [Mitomycin C, reference compound] |  | 800 nM | 240 nM | 360 nM |  | 1020 nM | 70 nM |  |  |  |  |  |  |  |  |
| COc1c(C)c2c(c(O)c1C/C=C(\C)CCC(=O)O)C(=O)OC2 [mycophenolic acid] | 510 nM |  | 820 nM | 700 nM | 1400 nM | ~5000 nM | 330 nM |  |  |  |  |  |  |  |  |
| Oc1ccc(/C=N/NC(=S)Nc2cccnc2)nc1 [NSC185065] |  |  |  |  |  |  |  | 3400 nM | > 10000 nM | 3730 nM | 2240 nM | 2970 nM | 2840 nM | 2540 nM |  |
| CC[C@](C)(O)C(=O)O[C@H]1C(=O)O[C@@H]2C[C@H]3C(C)=C[C@H](O)[C@@H](O)[C@]3(C)[C@H]3[C@]4(O)OC[C@]32[C@@H]1[C@@H](C)[C@H]4O [Glaucarubin] | ~10000 nM |  | 490 nM | 1560 nM | > 10000 nM | > 10000 nM | 3060 nM |  |  |  |  |  |  |  | ~6000 nM |
| S=C(S)N1CCCC1 [Pyrrolidinedithiocarbamate] | ~300 nM |  | 170 nM | 170 nM | ~200 nM | > 10000 nM | 230 nM |  |  |  |  |  |  |  |  |
| CCN(CC)C(=S)SSC(=S)N(CC)CC [Disulfiram] | 140 nM |  | < 10 nM | 70 nM | 290 nM | > 10000 nM | 100 nM |  |  |  |  |  |  |  |  |
| CC1=CC(=O)c2c(O)cccc2C1=O [Plumbagin] | ~5000 nM |  | 1060 nM | 550 nM | ~10000 nM | > 10000 nM | 730 nM |  |  |  |  |  |  |  |  |
| CCOC(C)C(C=NNC(N)=S)=NNC(N)=S (stereo not shown) [Gloxazone, 3-ethoxy-2-oxobutyraldehyde bis(thiosemicarbazone)] | < 20 nM |  | ~20 nM | ~30 nM | ~40 nM | 220 nM | 30 nM |  |  |  |  |  |  |  |  |

Read-outs that look alike come from different tables or passages of the source.
